# Measurements: ChEMBL document CHEMBL1132816, “Arylacetamides as peripherally restricted kappa opioid receptor agonists” (Bioorg Med Chem Lett, 2000)
# What was measured:
# [1] = target: Opioid receptors; delta & kappa (Homo sapiens) (UniProt P41145+P41143); test: Selectivity was evaluated as ratio of Ki of delta receptor by displacement of [3H]diprenorphine to that of kappa receptor
# [2] = target: Opioid receptors; mu & kappa (Homo sapiens) (UniProt P41145+P35372); test: Selectivity was evaluated as ratio of Ki of mu receptor by displacement of [3H]diprenorphine to that of kappa receptor
Structure (SMILES),Selectivity [1],Selectivity [2]
CN(C(=O)Cc1cccc(N)c1)[C@H](CN1CCCC1)c1ccccc1,> 1000,> 1000
"CN(C(=O)Cc1ccc(Cl)c(Cl)c1)[C@H](CN1CCCC1)c1ccccc1 [ICI-199,441]",600,> 1000
CN(C(=O)Cc1cccc(N(S(C)(=O)=O)S(C)(=O)=O)c1)[C@H](CN1CCCC1)c1ccccc1,> 1000,> 1000
CN(C(=O)Cc1ccc(N)cc1)[C@H](CN1CCCC1)c1ccccc1,> 1000,> 1000
CN(C(=O)Cc1ccc(N(S(C)(=O)=O)S(C)(=O)=O)cc1)[C@H](CN1CCCC1)c1ccccc1,> 1000,> 1000
CN(C(=O)Cc1ccc(Cl)c(Cl)c1[N+](=O)[O-])[C@H](CN1CCCC1)c1ccccc1,580,430
CN(C(=O)Cc1ccccc1C(F)(F)F)[C@H](CN1CCCC1)c1ccccc1,> 1000,> 1000
CN(C(=O)Cc1ccc(Cl)c(Cl)c1N)[C@H](CN1CCCC1)c1ccccc1,140,260
CN(C(=O)Cc1cccc(C(F)(F)F)c1)[C@H](CN1CCCC1)c1ccccc1,> 1000,> 880
CN(C(=O)Cc1ccccc1N(S(C)(=O)=O)S(C)(=O)=O)[C@H](CN1CCCC1)c1ccccc1,> 1000,> 1000
CN(C(=O)Cc1ccccc1N)[C@H](CN1CCCC1)c1ccccc1,> 1000,> 1000
CN(C(=O)Cc1ccc(Cl)c(Cl)c1N(S(C)(=O)=O)S(C)(=O)=O)[C@H](CN1CCCC1)c1ccccc1,33,320
